The source of these data is patent publication US8829033B2, “N-benzylamide substituted derivatives of 2-(acylamido)acetic acid and 2-(acylamido)propionic acids: potent neurological agents” (The University of North Carolina at Chapel Hill, priority 2009, dated 2014).

Each structure is given as a SMILES string.

In series [1] the test system is Rat. Nature of the series: Maximal electroshock seizure (MES) test, rat (po). In kind it is in vivo. The following applies: orally.
For series [2], the system named is Rat. The experiment in a line: Behavioral toxicity, rat (po). It counts as in vivo. The following applies: Table b502, orally.

`COC[C@@H](NC(C)=O)C(=O)NCc1ccc(OCc2ccccc2F)cc1` [(R)-21, (R)—N-4-(2-Fluorobenzyloxy)benzyl 2-Acetamido-3-methoxypropionamide] came in with an ED50 in the series with Rat [1] of 11 mg/kg.

Turning to `COC[C@@H](NC(C)=O)C(=O)NCc1ccc(OCc2ccc(F)cc2)cc1` [(R)-22, (R)—N-4-(4-Fluorobenzyloxy)benzyl 2-Acetamido-3-methoxypropionamide], it took a dose of 5.8 mg/kg to reach the 50% effect level in the series with Rat [1] (ED50). Further, the “Rat (po) Tox, TD50” value with Rat [2] is given as above 500 mg/kg.
